Here are results for 24 compounds from PubChem BioAssay AID2071 (Sanford-Burnham Center for Chemical Genomics, 2009).

Structures are written as SMILES. This is a selection; strong and weak results do not stand in their true shares. Some results for these compounds are left out of this collection, so the calls shown say nothing about other tests. Calls of active or inactive are those of the source. No stated cut-off is given here; in the data, active means inhibition mostly above about 24% (no sharp cut-off); inactive means mostly below about 32%.

This test in a line: NALP1 inflammasome inhibitors in reconstituted yeast, colorimetric, S. cerevisiae, triplicate retest (AID 2071). The note with it: S. cerevisiae NALP1/ASC/caspase-1 growth, X-gal OD620, 72 h; at 10 µM; hits give high values.
For orientation: inhibition means the drop in the measured response relative to a control, in per cent. As for `CN1[C@@H]2CC[C@H]1CC(OC(=O)C(O)(c1ccccc1)c1ccccc1)C2` (some centres undefined), the inhibition was inactive: 5.8%.

For `O=C(NCC1(N2CCCCC2)CCCCC1)c1cc([N+](=O)[O-])ccc1Cl`, the inhibition is inactive: -3.9%.

`Cc1ccc(C(=O)NCC2(N3CCCCC3)CCCCC2)cc1`: the inhibition was inactive: 26.1%.

In the case of `CC(C)N1C(=O)CC2(CCN(CCOC(=O)C(O)(c3ccccc3)c3ccccc3)CC2)C1=O`, the inhibition was inactive: -8%.

`CCN(CC)CC(C)C(C)OC(=O)C(O)(c1ccccc1)c1ccccc1` (centres undefined): the inhibition was inactive: -3.8%.

Take `COc1cc(SC)ccc1C(=O)NCC1(N(C)C)CCCCC1`: the inhibition was inactive: 17.4%.

Turning to `Cc1ccccc1C(=O)NCC1(N2CCCCC2)CCCCC1`, the inhibition was inactive: 7.9%.

In the case of `CN(C)C1CCCC1OC(=O)C(O)(c1ccccc1)c1ccccc1` (centres undefined), the inhibition is inactive: -5.5%.

`CN(C)c1ccc(C(=O)NCC2(N(C)C)CCCCC2)cc1`: the inhibition was inactive: 26%.

As for `Cc1cc(C(=O)NCC2(N3CCCCC3)CCCCC2)ccc1[N+](=O)[O-]`, the inhibition was inactive: 13.7%.

In the case of `CCN1CCCC(OC(=O)C2(O)c3ccccc3C=Cc3ccccc32)C1` (centres undefined), the inhibition is inactive: 20.5%.

As to `O=C(NCC1(N2CCCCC2)CCCCC1)c1cccc(Br)c1`, the inhibition is inactive: 3.7%.

As to `COc1ccc(C(=O)NCC2(N(C)C)CCCCC2)cc1`, the inhibition was inactive: 13.1%.

`C=CCN1CCN(CCOC(=O)C(O)(c2ccccc2)c2ccccc2)CC1`: the inhibition was inactive: 9.3%.

Take `O=C(NCC1(N2CCCCC2)CCCCC1)c1cc(F)c(F)cc1Cl`: the inhibition is inactive: 7%.

On to `COc1cc(C(=O)NCC2(N(C)C)CCCCC2)c([N+](=O)[O-])cc1OC`, for which the inhibition is inactive: 28.1%.

In the case of `CN(C)C1(CNC(=O)c2ccc(Br)cc2)CCCCC1`, the inhibition was inactive: 25.7%.

Turning to `O=C(NCC1(N2CCCCC2)CCCCC1)c1cccc(Cl)c1`, the inhibition is inactive: 10.3%.

As to `COc1cccc(C(=O)NCC2(N3CCCCC3)CCCCC2)c1`, the inhibition was inactive: 16.4%.

For `COc1ccc(Cl)cc1C(=O)NCC1(N(C)C)CCCCC1`, the inhibition is inactive: 7.4%.

In the case of `O=C(OC1CN2CCC1CC2)C(CO)(c1ccccc1)c1ccccc1` (centres undefined), the inhibition is inactive: 6.2%.

Take `CN(C)c1cccc(C(=O)NCC2(N(C)C)CCCCC2)c1`: the inhibition was inactive: 14.8%.

As for `CC(C)Oc1ccc(C(=O)NCC2(N(C)C)CCCCC2)cc1`, the inhibition is inactive: 10.1%.

`COc1ccc(Br)c(C(=O)NCC2(N3CCCCC3)CCCCC2)c1`: the inhibition was inactive: -0.7%.
